{"sequences": {"note": "Amino acid sequences for entries named in this document (tags omitted). Residues count along the entry.", "UniProt P14756, 198-498": "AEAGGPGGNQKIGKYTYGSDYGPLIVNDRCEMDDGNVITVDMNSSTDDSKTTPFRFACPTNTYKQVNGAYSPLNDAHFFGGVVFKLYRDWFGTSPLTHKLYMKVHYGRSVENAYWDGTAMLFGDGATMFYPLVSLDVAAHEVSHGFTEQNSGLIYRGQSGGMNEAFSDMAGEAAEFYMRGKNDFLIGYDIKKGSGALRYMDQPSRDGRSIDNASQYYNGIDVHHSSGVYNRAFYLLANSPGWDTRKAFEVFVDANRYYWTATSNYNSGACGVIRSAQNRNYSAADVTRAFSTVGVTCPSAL"}, "source": "paper PMC3618488", "about": "(Chemical communications (Cambridge, England), 2013)", "biological_target": "Pseudomonas aeruginosa elastase (LasB) (Pseudomonas aeruginosa, UniProt P14756)", "format": "biochemical", "settings": "read-out: IC50 for LasB inhibition", "data": [{"substance": "acetyltropolone [compound 4]", "values": [{"measurement": "IC50", "result": "1290 ± 240", "unit": "µM"}]}]}
